Data from patent US20030032203A1, “Small molecule microarrays” (published 2003).

System: A549 human lung carcinoma cells
Experiment: cell death assay on methacrylate geldisk small molecule array, phase-contrast microscopy

O=[As]c1ccccc1 (stereo not drawn)
gel-like disk concentration harboring rounded cells (characteristic of dying cells) (18 hours at 37° C., phase-contrast microscope): greater than 0.55 mM | state of cancer cells on geldisk (FIG. 3) (geldisk containing a toxic small molecule): dead cancer cells | IC50 (read-out: concentration of phenylarsine oxide causing a 50% loss of cell viability, concentration in gel-like disk, 18 hours at 37° C., counting number and extent of rounded cells on each spot): 1000 µM
